# In paper PMC9000250, “Computational Methods for Understanding the Selectivity and Signal Transduction Mechanism of Aminomethyl Tetrahydronaphthalene to Opioid Receptors” (Molecules, 2022):
# Amino acid sequences for entries named in this document (tags omitted).
# UniProt P35372, whole entry: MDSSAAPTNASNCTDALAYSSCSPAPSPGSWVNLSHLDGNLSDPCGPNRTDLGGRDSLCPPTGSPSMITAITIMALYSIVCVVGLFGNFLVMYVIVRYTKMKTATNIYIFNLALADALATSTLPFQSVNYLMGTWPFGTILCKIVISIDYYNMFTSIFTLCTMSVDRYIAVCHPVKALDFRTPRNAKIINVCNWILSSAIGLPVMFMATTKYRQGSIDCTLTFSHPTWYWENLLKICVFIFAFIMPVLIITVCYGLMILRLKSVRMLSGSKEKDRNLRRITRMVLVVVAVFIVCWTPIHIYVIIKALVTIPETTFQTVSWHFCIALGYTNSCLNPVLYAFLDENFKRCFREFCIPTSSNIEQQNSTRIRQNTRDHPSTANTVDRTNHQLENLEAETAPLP
# What was measured:
# human MOR [1] = target: T1, human MOR (Homo sapiens, UniProt P35372); assay: [35S]GTP-γ-S functional assay, CHO cell membranes; assay type: biochemical; conditions: MOR EC50, stimulation of [35S]GTPγS binding; NA = no activity
# Method: In a final volume of 0.5 mL, various concentrations of each tested compound were incubated with […] (μ) of CHO cell membranes that stably expressed the human MOR. The assay buffer consisted of 50 mM Tris-HCl, pH 7.4, 3 mM MgCl2, 0.2 mM EGTA, […] and 100 mM NaCl. The final concentration of [^35S]GTP-γ-S was 0.08 nM. Nonspecific binding was measured by the inclusion of […] GTP-γ-S. Binding was initiated by the addition of the membranes. After an incubation period of 60 min at 30 °C, the reactions were terminated by rapid filtration, and the radioactivity was determined by liquid scintillation counting.
# human MOR [2] = target: T1, human MOR; set-up: method as in PMID 27096047; conditions: read-out: Ki (±SEM) MOR; cited from earlier work
smiles,measurement,setting,value
"CN(C)CC1CCCCC1(O)c1cccc(O)c1 (centres unmarked) [M1, reference compound]",EC50,human MOR [1],246 nM and 245 nM
same,Ki,human MOR [2],13 ± 0.5 nM

# Where “and” joins values, the source holds several entries; their conditions need not be identical. Identical values can stand only once.
